Laboratory results as given in publication PMC7041945, “Misfolded proteins bind and activate death receptor 5 to trigger apoptosis during unresolved endoplasmic reticulum stress” (eLife, 2020).

The chains behind the UniProt entries cited, without tags or fusion partners. Residues count along the entry.
UniProt O14763, 72-213: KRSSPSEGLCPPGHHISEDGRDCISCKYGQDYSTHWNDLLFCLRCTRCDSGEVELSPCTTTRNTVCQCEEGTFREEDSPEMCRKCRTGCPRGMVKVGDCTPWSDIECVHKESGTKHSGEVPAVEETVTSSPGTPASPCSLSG

Target: T1, DR5L ECD (Homo sapiens, UniProt O14763)
T1 construct: Gp67 (glycoprotein) signal peptide (N); made in house; host or cells: SF21 insect cells (baculovirus, Bac-to-Bac)
Experiment: Size exclusion chromatography of DR5 ECD and peptide complex
Format: biochemical
Settings: 25 μM DR5L ECD; TRAIL 25 uM
Experimental: The specified concentration of protein and peptide were incubated overnight at 4°C. The following day, 200 ul of each sample was loaded onto a SuperDex200 10/300 GL column equilibrated with 30 mM HEPES pH 7.2, 150 mM NaCl at a flow rate of 0.5 ml/min. Fractions were collected in 1 ml aliquots.
For subsequent analysis of each fraction by SDS-PAGE, 1 ml fractions were concentrated to 50 μl using a 3 kDa MW cutoff and loaded onto a gel. The fluorescein-labeled peptide was visualized using the fluorescence detection mode on a Typhoon 9400 Variable Mode Imager (GE Healthcare). Protein was visualized by staining with Coomassie.

Substance: TRAIL: canonical extracellular ligand of DR5 (Apo2L/TRAIL)
- co-elution of TRAIL with DR5 ECD by size exclusion: both proteins co-eluted near the void volume
